These are literature values, as cited in patent publication US20220175776A1 (Frequency Therapeutics, Inc., priority 2019, published 2022).

Protein sequences, listed by entry. Tags and fused reporters are not part of them.
UniProt O75530, whole entry: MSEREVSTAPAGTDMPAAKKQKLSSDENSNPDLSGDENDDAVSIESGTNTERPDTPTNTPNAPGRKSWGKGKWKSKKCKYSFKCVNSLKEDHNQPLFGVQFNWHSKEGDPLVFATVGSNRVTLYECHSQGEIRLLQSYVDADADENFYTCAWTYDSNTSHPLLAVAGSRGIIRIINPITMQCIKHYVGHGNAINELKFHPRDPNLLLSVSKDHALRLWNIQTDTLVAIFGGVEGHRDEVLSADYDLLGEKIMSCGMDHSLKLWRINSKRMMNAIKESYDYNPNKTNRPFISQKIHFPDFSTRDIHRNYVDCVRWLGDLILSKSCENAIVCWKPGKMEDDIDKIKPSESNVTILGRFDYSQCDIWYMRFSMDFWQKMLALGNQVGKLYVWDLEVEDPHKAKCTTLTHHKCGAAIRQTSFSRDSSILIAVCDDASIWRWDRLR
UniProt Q15910, whole entry: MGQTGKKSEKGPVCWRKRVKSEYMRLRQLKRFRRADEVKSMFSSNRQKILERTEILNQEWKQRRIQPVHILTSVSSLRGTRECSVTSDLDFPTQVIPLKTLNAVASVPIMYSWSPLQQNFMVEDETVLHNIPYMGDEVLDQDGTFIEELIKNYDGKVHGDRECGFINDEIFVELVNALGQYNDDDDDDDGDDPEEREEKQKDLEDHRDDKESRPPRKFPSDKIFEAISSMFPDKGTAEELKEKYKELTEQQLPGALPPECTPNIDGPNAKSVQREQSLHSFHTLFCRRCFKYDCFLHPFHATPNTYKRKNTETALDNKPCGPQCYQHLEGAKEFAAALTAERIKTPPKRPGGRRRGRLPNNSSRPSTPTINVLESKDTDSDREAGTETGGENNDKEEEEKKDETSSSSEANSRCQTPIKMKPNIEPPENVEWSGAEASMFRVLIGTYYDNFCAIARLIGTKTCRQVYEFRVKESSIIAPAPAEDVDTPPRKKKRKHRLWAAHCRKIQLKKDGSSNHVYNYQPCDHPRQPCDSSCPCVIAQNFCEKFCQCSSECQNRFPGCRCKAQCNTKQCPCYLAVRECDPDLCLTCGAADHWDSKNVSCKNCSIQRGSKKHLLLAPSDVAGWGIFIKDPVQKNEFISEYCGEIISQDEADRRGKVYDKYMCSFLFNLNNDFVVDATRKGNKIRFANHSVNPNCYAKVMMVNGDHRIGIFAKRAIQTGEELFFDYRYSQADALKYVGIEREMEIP

The IC50 is the concentration needed to halve the response being measured.

The target of this data set is EZH2 (Homo sapiens, UniProt O75530+Q15910). The note with it: Table 7; EED inhibitors; read-out: pKi or IC50 (converted); cited from earlier work.

The structures appear in SMILES notation.

Consider `COc1ccc(CCN2CCC(Nc3nc4ccccc4n3Cc3ccc(F)cc3)CC2)cc1` [Astemizole], for which the IC50 was 94 µM.
